From patent publication US20260007681A1, “INDOLE DERIVATIVES AS ESTROGEN RECEPTOR DEGRADERS” (REGENTS OF THE UNIVERSITY OF MICHIGAN, priority 2022, published 2026) come the findings set out here.

One test addresses ER in MCF-7 cells (Homo sapiens (Human), UniProt P03372). The experiment in a line: In-cell western (ICW) ER degradation assay in MCF-7 cells (Compounds A1-A70). The conditions noted are these: read-out: MCF7 ICW DC50, 16 hrs treatment, 0.02 to 300 nM. Format: cell-based.
Another test has as its target ER in T47D cells (Homo sapiens (Human), UniProt P03372). Put plainly: In-cell western (ICW) ER degradation assay in T47D cells (Compounds A1-A70). The class given is cell-based. The conditions noted are these: read-out: T47D ICW DC50, 16 hrs treatment, 0.02 to 300 nM.

Usually DC50 stands for the concentration giving 50% degradation. Consider `COc1cc(N2CCC3(CCN(C(=O)CN4Cc5cnc(C(=O)N[C@H]6CCC(=O)NC6=O)cc5C4)CC3)CC2)ccc1[C@@H]1c2[nH]c3ccccc3c2C[C@@H](C)N1CC(F)F`, for which the DC50 on ER in MCF-7 cells and at ER in T47D cells was under 1 nM in each case.
